# Apparent affinities of Ab-91 variants for a coronavirus HR2 peptide

From the AlphaSeq antibody data of Engelhart et al. 2022 (doi:10.1038/s41597-022-01779-4), copy in the FLAb collection.

The target is the same throughout: PDVDLGDISGINAS, from the HR2 region of SARS-CoV-2 spike.

Parent: Ab-91, a human scFv built as VL, the linker GGGGSGGGGSGGGGS, VH. Only the CDRs of the heavy chain vary.
VL: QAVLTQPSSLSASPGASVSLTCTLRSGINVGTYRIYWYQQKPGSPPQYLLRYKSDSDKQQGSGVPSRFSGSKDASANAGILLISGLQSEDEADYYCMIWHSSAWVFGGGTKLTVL
VH: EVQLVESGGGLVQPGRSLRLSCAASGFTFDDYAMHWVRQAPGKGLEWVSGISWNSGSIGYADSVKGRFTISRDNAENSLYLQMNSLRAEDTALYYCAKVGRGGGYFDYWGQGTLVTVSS

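The parent was found by panning a naive human phage display library on the peptide. Variants in AAYL51 differ from the parent at up to three CDR positions; double and triple changes were sampled at random. The assay is AlphaSeq: two haploid yeast populations carry antibody and antigen on their surface. After mating in shaken culture at 30 °C for 16 h, diploids were selected and their barcode pairs sequenced. Scores were corrected for input abundance and mapped to Kd with protein pairs of known affinity run in the same pool. Mating was done three times.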

Substitutions are numbered in sequence along the VH above, starting at 1 (not Kabat).
All variants listed here change G100 of the VH, counted from its first residue.
The Kd shown is the geometric mean over detected replicates; a lower Kd is a better binder.
An entry "not detected" has no value in the source: the pair was not observed among the diploids in any replicate. This suggests poor binding but is not conclusive.

changes,Kd (apparent),detected
G100A/R101E/D107S,200 µM,2/3
G100V/F106H,340 µM,1/3
G50R/G100M/F106Y,310 µM,1/3
S63F/G100K/G103E,4.1 µM,1/3
F27V/G100Y/Y105A,390 µM,2/3
Y32G/G56A/G100L,not detected,0/3
G100T/Y105Q/F106D,300 µM,1/3
S52Y/S63I/G100K,46 µM,2/3
I58A/G100I/Y105M,1.9 µM,2/3
A33F/G100A/G104K,2.6 µM,2/3
M34H/S57E/G100M,not detected,0/3
A33P/G100Q,88 µM,3/3
Y32T/G100L/R101D,not detected,0/3
F27S/I51P/G100V,28 µM,2/3
G56W/G100Y,510 nM,3/3
I58N/G100A,130 nM,2/3
D30K/G56C/G100C,not detected,0/3
H35S/G100N/F106K,77 µM,1/3
F29G/G56L/G100N,28 µM,1/3
F29I/G100P/R101T,23 nM,3/3
H35R/S55E/G100T,not detected,0/3
D62W/G100F,140 µM,3/3
G26D/F29A/G100T,not detected,0/3
T28Y/N54K/G100T,22 µM,3/3
A33D/D62I/G100S,98 µM,1/3
D31G/V64F/G100C,21 nM,3/3
K65V/G100S,42 µM,2/3
Y60R/A61L/G100L,not detected,0/3
G26E/F27W/G100Y,not detected,0/3
V64L/G100Y/Y108Q,not detected,0/3
G100F/D107Y,not detected,0/3
D31H/G100D/Y108V,not detected,0/3
N54E/G100M,14 nM,3/3
D31I/G100T/R101A,12 µM,2/3
Y60A/G100I/R101N,not detected,0/3
A33T/Y60F/G100K,4.1 µM,1/3
D30R/G100Q/D107A,9.9 nM,3/3
S55D/G56E/G100L,27 µM,2/3
Y32S/G100V/G102M,2.6 µM,1/3
G59F/V99I/G100N,1.8 µM,1/3
N54M/V64Y/G100S,not detected,0/3
Y32I/G100C/G103C,310 µM,1/3
S57P/I58V/G100D,not detected,0/3
S55M/G100I,43 µM,1/3
D31G/W53P/G100V,22 µM,1/3
S52I/N54H/G100M,200 µM,1/3
N54S/S63K/G100R,not detected,0/3
A33Y/H35S/G100Y,100 µM,2/3
S52F/G100P,not detected,0/3
Y60A/G100P/G104H,not detected,0/3
D30H/K65M/G100H,14 µM,1/3
G100I/G102W/Y108C,not detected,0/3
S52G/S55N/G100A,not detected,0/3
N54A/G100L/D107K,not detected,0/3
I51D/S63G/G100P,91 µM,3/3
T28W/F29M/G100H,32 nM,3/3
G100M/G102H/Y108V,670 µM,1/3

Picked from the list: the 7 lowest averages where every replicate gave a value.

changes,Kd (apparent),detected
D30R/G100Q/D107A,9.9 nM,3/3
N54E/G100M,14 nM,3/3
D31G/V64F/G100C,21 nM,3/3
F29I/G100P/R101T,23 nM,3/3
T28W/F29M/G100H,32 nM,3/3
G56W/G100Y,510 nM,3/3
T28Y/N54K/G100T,22 µM,3/3

For reference, the parent read 72 nM as the reference entry and 7.5 nM as a member of this library.
Nonspecific signal, from three strains lacking the peptide, appeared in 21% of pairings of library AAYL51, centred on 34 µM (5% of these signals below 1.8 µM); values are not corrected for it.